This is an account of results in PubChem BioAssay AID1324 (NMMLSC, 2008).

This is a selection; strong and weak results do not stand in their true shares. Calls of active or inactive are those of the source. How the calls were made is not given here.

The test addresses glutathione S-transferase (GST-GSH binding). Description: GST–glutathione interaction disruption – biochemical, multiplex beads, flow cytometry, HPSMTB buffer, profiling panel (AID 1324).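 Further: glutathione beads loaded with GST-green fluorescent protein and no fluorescent Bim peptide.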 Particulars: multiplex bead flow cytometry, MCF, concentration not given here. (In general: A flow cytometer gives signals particle by particle.)

With `CCOP1(=S)c2c(C)nn(CCC#N)c2N=C(c2ccc(F)cc2)N1C` (stereo unspecified), the percent span inhibition entry was “inactive”.
